Values quoted from earlier work as cited in US20080096915A1, “COMPOSITIONS FOR THE TREATMENT OF METABOLIC DISORDERS” (Greenberg Traurig LLP, priority 2005, published 2008).

Conditions: in vivo

binding to plasma proteins: does not bind to plasma proteins
SMILES: CN(C)C(=N)N=C(N)N [Metformin]
